Patent US10045529B2, “Quat cleaner with glycerin ether ethoxylates” (Ecolab USA Inc., priority 2012, dated 2018)

Test: Water solubility
Type: physicochemical

2 Ethylhexyl glycerin ether [reference compound]
% Soluble: Insoluble

2-Ethyl Hexanol Glycerin Ether Ethoxylate (3 moles) [2EHGE (3 EO)]
% Soluble: 100%
